Values joined by “and” are separate entries in the source; they are usually repeats but may differ in a detail not shown here. Equal entries are not always repeated. The list shows a part of the results, in another mix than the full data. Inconclusive results are not listed. Active and inactive are the calls of the source. The call rests on the fitted dose curve; in most records, active means well fitted activation curve with a large enough effect; inconclusive means small, poorly fitted or top-dose-only effect; inactive means no such curve, though single readings can be large or run the other way.
assay: qHTS screen for small molecules that induce genotoxicity in human embryonic kidney (HEK293T) cells expressing luciferase-tagged ELG1; details: HEK293T ELG1-luciferase reporter, luminescence, 16 h; at 46 µM (top of the series); further: % of control where 0% means no effect; nearly all actives have a fitted effect of over 60% in size
Procedure, shortened: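 Quantitative HTS format in 1536-well plates. HEK293T ELG1-luciferase reporter cells receive test compound and are incubated 16 hr at 37 °C, 5% CO2; ONE-Glo added, 30 min room temperature, then luminescence read.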

Row | Structure (SMILES) | activity change, positive = activation
1 | CCC(C)N(CC(C)C)C(=S)SC(NC(C)=O)C(Cl)(Cl)Cl (stereo unspecified) | inactive: 0.535%
2 | COP1(=S)c2c(C)nn(CCC#N)c2N=C(c2ccc(F)cc2)N1C (stereo unspecified) | inactive: -0.877%
3 | O=C(Nc1ccncc1[N+](=O)[O-])c1ccc([N+](=O)[O-])cc1[N+](=O)[O-] | inactive: -14.9%
4 | O=C(COc1ccccc1)OC1CN2CCC1CC2 (stereo unspecified) | inactive: -0.185%
5 | Nc1ccc([As](=O)(O)c2ccc(N)cc2)cc1 | inactive: 0.0692%
6 | CCN(/C(=N/P(=O)(N1CCOCC1)N1CCOCC1)N1CCOCC1)c1ccc(OC)cc1 | inactive: 1.09%
7 | CN(C)C(=O)OCCc1n(C)cc[n+]1C | inactive: -1.59%
8 | CC(C)=N/N=C(\N)N[N+](=O)[O-] | inactive: 0.0255%
9 | CC1CCN(C(=O)Oc2c(Cl)cc(Cl)c3cccnc23)CC1 | inactive: -0.44%
10 | COc1ccc(C2=NCC(CBr)S2)cc1 (stereo unspecified) | inactive: 0.131%
11 | CC(=O)N1C2C3N(C(C)=O)C1C1N(C(C)=O)C(C(N1C(C)=O)N3C(C)=O)N2C(C)=O | inactive: 0.617%
12 | O=[N+]([O-])c1cccc2n[nH]nc12 | inactive: 1.51%
13 | O=[N+]([O-])c1cc([N+](=O)[O-])c(CCNc2ccccc2)c([N+](=O)[O-])c1 | inactive: -8.68%
14 | Cc1ccc(NP(=O)(Oc2ccccc2)Oc2ccccc2)nc1 | inactive: -2.89%
15 | CC(C)(C)C(=O)NC(Sc1ccncn1)C(Cl)(Cl)Cl (stereo unspecified) | inactive: -2.1%
16 | O=[N+]([O-])c1ncn(CCn2ncnc2[N+](=O)[O-])n1 | inactive: 0.608%
17 | O=[N+]([O-])c1cccc(NC2=NCC(CBr)S2)c1 (stereo unspecified) | inactive: -6.91%
18 | O=C(O)CNc1ccc([As](=O)(O)O)cc1 | inactive: -1.55%
19 | O=C(Nc1cc([As](=O)(O)O)ccc1O)c1ccccc1 | inactive: -9.65%
20 | O=[N+]([O-])c1cc([N+](=O)[O-])c(CCN2CCOCC2)c([N+](=O)[O-])c1 | inactive: -10.9%
21 | CCN(N=Nc1nonc1N)c1nonc1N | inactive: -6.21%
22 | Nc1cccc2ccc([As](=O)(O)O)cc12 | inactive: 0.345%
23 | CC(=O)Nc1ccc([As](=O)(O)O)cc1 | inactive: -4.12%
24 | O=C(O)c1ccccc1[As](=O)(O)O | inactive: -1.53%
25 | O=P(Nc1nc2ccc(Cl)cc2s1)(c1ccccc1)c1ccccc1 | inactive: -10.2%
26 | Cc1ccc(NP(=O)(Oc2ccccc2F)Oc2ccccc2F)nc1 | inactive: 2.44%

Row | Structure (SMILES) | activity change, positive = activation
27 | Cc1cc(SC(NC(=O)c2ccc(F)cc2)C(Cl)(Cl)Cl)ncn1 (stereo unspecified) | inactive: -2.67%
28 | CCOP(=O)(Nc1ccccc1)OCC | inactive: 0.939% and inactive: -3.9%
29 | Nc1cc(N)c2nonc2c1[N+](=O)[O-] | inactive: -1.35%
30 | CC(C)CC(=O)NC(Sc1ccc(Cl)cc1)C(Cl)(Cl)Cl (stereo unspecified) | inactive: -0.129%
31 | O=C(NC(Sc1ccncn1)C(Cl)(Cl)Cl)c1ccccc1 (stereo unspecified) | inactive: 0.497%
32 | Cc1c2non([O-])c-2c(C)[n+](=O)[n+]1[O-] | inactive: -39.4%
33 | Oc1ccccc1CNc1ccccn1 | inactive: 8.97%
34 | NC(=O)c1cc([N+](=O)[O-])cc([N+](=O)[O-])c1N | inactive: -7.26%
35 | Cc1ccc(N/C(=N/P(=O)(N2CCOCC2)N2CCOCC2)N2CCOCC2)cc1 | inactive: 4.86%
36 | CN(C(=O)Cc1ccc(Cl)c(Cl)c1)[C@H]1CCCC[C@H]1N1CCCC1 | inactive: -7.74%
37 | Cc1ccc(OP(=O)(Nc2nccs2)Oc2ccc(C)cc2)cc1 | inactive: 0.497%
38 | COc1ccccc1OP(=O)(Nc1ccc(C)cn1)Oc1ccccc1OC | inactive: -4.71%
39 | CN1CCCC(OC(=O)C(c2ccccc2)c2ccccc2)C1 (stereo unspecified) | inactive: -0.0281%
40 | Clc1ccc(Cl)c(NC2=NCC(CBr)S2)c1 (stereo unspecified) | inactive: -0.546%
41 | CC(=O)c1ccc(N2CC2c2ccncc2)cc1 (stereo unspecified) | inactive: -0.609%
42 | C[C@H]1OP(=O)(Oc2ccccc2)C[C@@H]2O[C@@H]21 (stereo partly specified) | inactive: -2.58%
43 | C[C@@H]1C=CCP(=O)(Oc2ccccc2)O1 (stereo partly specified) | inactive: 3.36%
44 | Cc1ccccc1CN(C)C(=O)COC(=O)C(O)(c1ccccc1)c1ccccc1 | inactive: -2.17%
45 | CC(=O)Nc1ccc(Oc2c([N+](=O)[O-])cc([N+](=O)[O-])cc2[N+](=O)[O-])cc1 | inactive: 1.75%
46 | CC(=O)Nc1ccc([As](=O)(O)O)c(O)c1 | inactive: -2.1%
47 | CCOc1ccc(C2=NCC(CBr)S2)cc1 (stereo unspecified) | inactive: 11.7%
48 | CC(C)(C)C(=O)NC(Sc1ccccc1)C(Cl)(Cl)Cl (stereo unspecified) | inactive: 2.04%
49 | Cc1ccc(OP(=O)(Nc2ccccn2)Oc2ccc(C)cc2)cc1 | inactive: -7.49%
50 | CC(=O)NC(SC(=S)N(CC(C)C)CC(C)C)C(Cl)(Cl)Cl (stereo unspecified) | inactive: -0.76%
51 | COC(=O)c1cc2c(s1)N=C(c1ccccc1)N(C)P2(=O)N1CCOCC1 (stereo unspecified) | inactive: -1.06%
52 | CCC(=O)N1C2C3N(C(=O)CC)C1C1N(C(=O)CC)C(C(N1C(=O)CC)N3C(=O)CC)N2C(=O)CC | inactive: 0.078%

Row | Structure (SMILES) | activity change, positive = activation
53 | O=C(OC1CN2CCC1CC2)c1ccccc1 (stereo unspecified) | inactive: 0.0896%
54 | O=c1c2cc([N+](=O)[O-])ccc2[nH]c2c([N+](=O)[O-])cc([N+](=O)[O-])cc12 | inactive: -9.69%
55 | CN(C)C(=O)Oc1noc2ccccc12 | inactive: 0.445%
56 | CC(NC(=O)COC(=O)C(O)(c1ccccc1)c1ccccc1)c1ccccc1 (stereo unspecified) | inactive: 0.499%
57 | Cc1ccccc1OP(=O)(Nc1ccccn1)Oc1ccccc1C | inactive: -8.48%
58 | O=C(NC1CCS(=O)(=O)C1)NP(=S)(Oc1ccccc1)Oc1ccccc1 (stereo unspecified) | inactive: -1.63%
59 | CCNC(=S)/N=C(\N)N[N+](=O)[O-] | inactive: -1.64%
60 | CCOC(=O)NC(Sc1ccccc1)C(Cl)(Cl)Cl (stereo unspecified) | inactive: 1.51%
61 | Cc1ccc(NP(=O)(Oc2cccc(C)c2)Oc2cccc(C)c2)nc1 | inactive: 5.07%
62 | c1ccc(-c2nn[nH]n2)c(-c2nn[nH]n2)c1 | inactive: 5.13%
63 | O=[N+]([O-])c1ncn(CCn2cnc([N+](=O)[O-])n2)n1 | inactive: -2.69%
64 | CC(=O)NC(SC(=S)N(C)C)C(Cl)(Cl)Cl (stereo unspecified) | inactive: 0.507%
65 | O=[N+]([O-])c1ccc(O)c(/C=N/Nc2ccc([N+](=O)[O-])cc2[N+](=O)[O-])c1 | inactive: -13.5%
66 | O=[As](O)(c1ccccc1)c1ccc(O)cc1 | inactive: -1.54%
67 | C(Cc1nn[nH]n1)Cc1nn[nH]n1 | inactive: 1.53%
68 | Nc1ccc([As](=O)(O)c2ccc([N+](=O)[O-])cc2)cc1 | inactive: 0.26%
69 | O=C(OC1CN2CCC1CC2)c1cccc(Cl)c1 (stereo unspecified) | inactive: 0.923%
70 | CN(C)C1(CNC(=O)c2ccc(Cl)c(S(N)(=O)=O)c2)CCCCC1 | inactive: 1.8%
71 | O=P(Nc1ccccn1)(c1ccc(Br)cc1)c1ccc(Br)cc1 | inactive: -8.43%
72 | C[C@H]1OP(=O)(Oc2ccccc2)[C@H](O)[C@H](O)[C@H]1N=[N+]=[N-] (stereo partly specified) | inactive: 0.927%
73 | O=P(Nc1nc2ccccc2s1)(c1ccccc1)c1ccccc1 | inactive: -1.93%
74 | O=P(Nc1nccs1)(c1ccccc1)c1ccccc1 | inactive: -0.14%
75 | CC(C)C(=O)NC(Sc1ccccc1)C(Cl)(Cl)Cl (stereo unspecified) | inactive: -1.62%
76 | c1nnnn1CCn1cnnn1 | inactive: 1.33%

Reference: PubChem BioAssay AID504466 (National Center for Advancing Translational Sciences (NCATS), 2011)
